Consider 25 molecules from PubChem BioAssay AID504357 (The Scripps Research Institute Molecular Screening Center, 2011).

Amino acid sequences for entries named in this document (tags omitted).
UniProt P35372, whole entry, looked up: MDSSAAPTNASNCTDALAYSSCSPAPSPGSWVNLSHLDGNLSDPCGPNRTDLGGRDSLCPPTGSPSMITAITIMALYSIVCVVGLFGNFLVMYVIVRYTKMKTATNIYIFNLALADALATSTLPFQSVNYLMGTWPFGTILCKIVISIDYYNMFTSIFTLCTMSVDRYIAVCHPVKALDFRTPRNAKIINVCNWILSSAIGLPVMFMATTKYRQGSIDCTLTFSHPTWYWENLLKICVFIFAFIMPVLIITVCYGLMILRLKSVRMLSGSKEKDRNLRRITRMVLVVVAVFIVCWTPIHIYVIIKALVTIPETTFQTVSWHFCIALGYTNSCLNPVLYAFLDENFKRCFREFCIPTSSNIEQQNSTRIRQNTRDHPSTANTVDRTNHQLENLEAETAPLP
UniProt P41143, whole entry, looked up: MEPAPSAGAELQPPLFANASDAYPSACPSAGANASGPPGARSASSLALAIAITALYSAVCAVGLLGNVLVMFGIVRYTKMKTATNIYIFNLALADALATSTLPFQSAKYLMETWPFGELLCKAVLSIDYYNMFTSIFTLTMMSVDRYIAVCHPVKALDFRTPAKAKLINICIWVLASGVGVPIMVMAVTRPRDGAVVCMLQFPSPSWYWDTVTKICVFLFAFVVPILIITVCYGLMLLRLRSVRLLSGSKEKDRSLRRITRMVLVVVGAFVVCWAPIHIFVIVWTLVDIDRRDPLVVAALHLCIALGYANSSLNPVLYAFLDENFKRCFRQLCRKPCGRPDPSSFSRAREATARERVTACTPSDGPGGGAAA

Each structure is given as a SMILES string. The list shows a part of the results, in another mix than the full data. Activity calls are given as the source filed them. Cut-off read from the data, not from the text of the source: active = inhibition above about 22% (passing the limit was not always enough); inactive = the rest.

The target of the experiment is Mu-type opioid receptor (Homo sapiens) + Delta-type opioid receptor (Homo sapiens) (UniProt P35372+P41143). As to the kind of experiment: OPRM1-OPRD1 heterodimer inverse agonism – cell-based, luminescence, primary screen (AID 504357).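 Note: 0% = cells with DMSO and 100% = wells without cells with DMSO.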 To be noted: cell-based MOR-DOR heterodimer luminescence, at 9.3 µM, stronger effect = higher value.
Regarding `S=C(Nc1ccccc1)N1CCn2c1nc1ccccc12`, the inhibition is inactive: 9.51%.

Take `CCNC(=S)/N=C(\N)N[N+](=O)[O-]`: the inhibition was inactive: 6.41%.

Consider `COc1cccc(NC(=O)[C@H](C)NC(=O)N2CCn3c2nc2ccccc23)c1`, for which the inhibition was inactive: 13.6%.

Take `O=C(NC1CCS(=O)(=O)C1)NP(=S)(Oc1ccccc1)Oc1ccccc1` (stereo not given): the inhibition is inactive: -9.35%.

As for `COc1cc(/C=N/NC(=O)Cn2cnc3c2c(=O)n(C)c(=O)n3C)ccc1O`, the inhibition is inactive: 0.91%.

As for `CCSc1nc2ccccc2n1CC(=O)N1CCOCC1`, the inhibition was inactive: -3.44%.

As for `O=c1c2cc([N+](=O)[O-])ccc2[nH]c2c([N+](=O)[O-])cc([N+](=O)[O-])cc12`, the inhibition was inactive: -10.6%.

`CN(C)CCn1cnc2ccccc21`: the inhibition was inactive: 11.9%.

`CN(C)C(=O)Oc1noc2ccccc12`: the inhibition is inactive: 10.4%.

For `Cc1ccc(OCCNC(=O)Cn2cnc3c(=O)n(C)c(=O)n(C)c32)cc1C`, the inhibition is inactive: 4.85%.

On to `CC(NC(=O)COC(=O)C(O)(c1ccccc1)c1ccccc1)c1ccccc1` (stereo not given), for which the inhibition was inactive: -2.97%.

Consider `CCc1cccc(C)c1N(C(=O)Cn1c(CO)nc2ccccc21)C(C)COC` (stereo not given), for which the inhibition is inactive: 6.54%.

For `CC1CCCN(C(=O)Cn2cnc3c2c(=O)n(C)c(=O)n3C)C1` (stereo not given), the inhibition is inactive: 17.8%.

As for `CCOC(=O)C1=C(Cn2cnc3ccccc32)NC(=O)NC1c1ccc(Cl)cc1` (stereo not given), the inhibition is inactive: 2.42%.

For the molecule `Cc1ccccc1OP(=O)(Nc1ccccn1)Oc1ccccc1C`, the inhibition was inactive: 1.12%.

Turning to `Cc1ccc(CNC(=O)Cn2cnc3c(NC(=O)OCc4ccccc4)ncnc32)o1`, the inhibition is inactive: 14.8%.

Consider `C[C@H](O)[C@@H]1C(=O)N2CCc3ccc(-c4cccc(F)c4)cc3[C@@H]2C[C@@H]1N(C)C(=O)Nc1ccccc1`, for which the inhibition is inactive: -8.72%.

Regarding `COCCN1CCn2c(nc3cc(Nc4nnc(C)c5ccccc45)ccc32)C1`, the inhibition is inactive: 16.7%.

Take `Cn1c(=O)c2c(ncn2CC(=O)N2CCN(c3ccccc3)CC2)n(C)c1=O`: the inhibition is inactive: 12.1%.

`COCCNC(=O)Cn1c(=O)n(C)c2ccccc21`: the inhibition was inactive: 6.74%.

As to `CCC(=O)N1C2C3N(C(=O)CC)C1C1N(C(=O)CC)C(C(N1C(=O)CC)N3C(=O)CC)N2C(=O)CC`, the inhibition is inactive: -6.44%.

Regarding `CC(/C=N\NC(=O)Cn1c(C)nc2ccccc21)=C\c1ccccc1`, the inhibition was inactive: -2.47%.

For the molecule `CCCC(=O)Nc1ccc2c(c1)nc1n2CCN(CCOC)C1`, the inhibition is inactive: 19.7%.

Regarding `Cc1ccc(C)c(Cn2c(=O)c3c(nc4n3CCN4Cc3ccco3)n(C)c2=O)c1`, the inhibition was inactive: 16.3%.

`Cc1ccc2c(c1)C1CN(C)CCC1N2C(=S)NC(=O)c1ccc(Cl)cc1Cl` (stereo not given): the inhibition is inactive: 18.8%.
